Source: patent US4753949A, “2-chloronicergoline having antihypoxic activity” (Richter Gedeon Vegyeszeti Gyar Rt., priority 1985, dated 1988)

Protein sequences, listed by entry. Tags and fused reporters are not part of them.
UniProt P61169, whole entry: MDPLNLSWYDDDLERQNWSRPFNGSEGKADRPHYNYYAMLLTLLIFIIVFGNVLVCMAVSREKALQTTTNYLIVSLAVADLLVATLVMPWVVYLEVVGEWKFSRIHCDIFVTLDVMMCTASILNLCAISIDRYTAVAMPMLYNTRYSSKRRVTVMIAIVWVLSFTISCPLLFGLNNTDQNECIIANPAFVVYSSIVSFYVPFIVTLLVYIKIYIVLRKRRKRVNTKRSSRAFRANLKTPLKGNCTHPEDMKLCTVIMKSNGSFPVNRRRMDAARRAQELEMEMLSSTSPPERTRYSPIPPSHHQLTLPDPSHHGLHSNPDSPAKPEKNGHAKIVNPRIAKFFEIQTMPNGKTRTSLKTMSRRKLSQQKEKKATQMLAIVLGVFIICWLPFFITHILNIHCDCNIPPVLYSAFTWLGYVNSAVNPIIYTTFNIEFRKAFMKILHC

Columns and labels:
[1] = Antihypoxic effect: survival time under hypobaric hypoxic conditions (170 mmHg); assay type: in vivo, rats (male SHR); settings: 2.5 mg/kg
Protocol: The studies were carried out on male SHR rats weighing 160 to 180 g as well as on CFLP mice of both sexes weighing 18 to 21 g. The compounds to be tested were orally administered in a volume of 5 ml/kg of body-weight (in the case of rats) or in a volume of 10 ml/kg of body-weight (in case of mice) at the 60th minute before beginning the experiment.
Nicergoline was dissolved in a tartaric acid solution of 0.4%, whereas the compounds to be tested were dissolved in a TWEEN 80 solution of 5% and diluted to the desired concentration by adding physiological saline.
The results are expressed as percentages.
Investigation of the antihypoxic effect
[I. Baumel et al.: Proc. Soc. Exp. Ther. Biol. N.Y. 132, 629 (1969]
Rats (n=5) were treated with various doses of the compounds to be tested and after 60 minutes the survival time was measured under hypobaric hypoxic conditions (170 mmHg). In the Table, the survival time is expressed as the percentage of that of the control group.

D-2 receptor = target: T1, D-2 receptor (Rattus norvegicus, UniProt P61169); test: D-2 receptor binding (3H-spiroperidol); design: species or system Hannover Wistar rats; settings: ratio of IC50 values
T1 construct: the striatum from their cortex was prepared; from tissue; host or cells: striatum membranes of Hannover Wistar rats
Protocol: Investigation of the D-2 receptor binding
Hannover Wistar rats were decapitated and the striatum from their cortex was prepared. The striata were homogenized in a 10-fold volume of a cold buffer solution (50 mmoles of TRIS HCl, 120 mmoles of NaCl, 2 mmoles of KCl, 1 mmole of MgCl2 and 5 mmoles of CaCl2 at pH 7.4) and centrifuged at 45000 g for 15 minutes.
For investigating the D-2 receptor binding, a membrane preparation, a buffer, a ligand (0.5 nmole of ^3 H-spiroperidol) and the compound to be tested in a defined concentration were used in a total volume of 2 ml.

Structure (SMILES): CO[C@]12C[C@@H](COC(=O)c3cncc(Br)c3)CN(C)[C@@H]1Cc1cn(C)c3cccc2c13 [Nicergoline, 1,6-dimethyl-10α-methoxyergoline-8β-methanol 5-bromonicotinate]
- mean survival time under lethal hypobaric hypoxic conditions (in words) [1]: not influenced
- Selectivity ratio D-2/α1 (D-2 receptor): 13.5 nmole/nmole
